Consider four compounds from patent publication US9975907B2, “Pyrimidinones as PI3K inhibitors” (Incyte Corporation, priority 2009, dated 2018).

Sequences of proteins named here, by UniProt entry; tags and fusion partners are left off. A change or cut given only in a name is not applied to a line headed by its entry.
UniProt O00329, whole entry, species assumed: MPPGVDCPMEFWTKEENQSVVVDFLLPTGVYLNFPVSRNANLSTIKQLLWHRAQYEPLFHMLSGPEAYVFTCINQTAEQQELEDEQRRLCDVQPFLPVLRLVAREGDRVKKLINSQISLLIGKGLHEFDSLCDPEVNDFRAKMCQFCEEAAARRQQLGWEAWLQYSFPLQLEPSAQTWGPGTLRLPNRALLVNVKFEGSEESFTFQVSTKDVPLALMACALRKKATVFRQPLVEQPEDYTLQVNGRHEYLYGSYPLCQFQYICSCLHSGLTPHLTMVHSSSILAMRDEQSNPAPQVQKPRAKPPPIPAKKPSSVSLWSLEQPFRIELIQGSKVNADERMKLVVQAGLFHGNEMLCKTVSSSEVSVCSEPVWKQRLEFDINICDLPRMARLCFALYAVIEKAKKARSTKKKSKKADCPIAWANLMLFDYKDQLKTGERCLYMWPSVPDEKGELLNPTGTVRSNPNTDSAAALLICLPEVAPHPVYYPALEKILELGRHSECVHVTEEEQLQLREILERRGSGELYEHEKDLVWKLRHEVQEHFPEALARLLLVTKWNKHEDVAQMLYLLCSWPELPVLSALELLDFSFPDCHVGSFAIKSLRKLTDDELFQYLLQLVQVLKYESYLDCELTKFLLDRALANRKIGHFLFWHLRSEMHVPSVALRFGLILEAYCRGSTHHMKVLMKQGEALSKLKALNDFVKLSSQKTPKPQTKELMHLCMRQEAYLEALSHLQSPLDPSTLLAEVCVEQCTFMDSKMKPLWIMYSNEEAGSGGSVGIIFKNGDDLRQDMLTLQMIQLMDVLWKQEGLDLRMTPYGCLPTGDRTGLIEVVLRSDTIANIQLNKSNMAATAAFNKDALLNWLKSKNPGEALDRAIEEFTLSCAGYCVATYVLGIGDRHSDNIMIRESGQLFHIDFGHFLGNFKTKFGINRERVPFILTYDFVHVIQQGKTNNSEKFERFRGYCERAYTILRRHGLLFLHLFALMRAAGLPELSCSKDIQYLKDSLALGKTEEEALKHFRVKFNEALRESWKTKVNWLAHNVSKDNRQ
UniProt P42336, whole entry, species assumed: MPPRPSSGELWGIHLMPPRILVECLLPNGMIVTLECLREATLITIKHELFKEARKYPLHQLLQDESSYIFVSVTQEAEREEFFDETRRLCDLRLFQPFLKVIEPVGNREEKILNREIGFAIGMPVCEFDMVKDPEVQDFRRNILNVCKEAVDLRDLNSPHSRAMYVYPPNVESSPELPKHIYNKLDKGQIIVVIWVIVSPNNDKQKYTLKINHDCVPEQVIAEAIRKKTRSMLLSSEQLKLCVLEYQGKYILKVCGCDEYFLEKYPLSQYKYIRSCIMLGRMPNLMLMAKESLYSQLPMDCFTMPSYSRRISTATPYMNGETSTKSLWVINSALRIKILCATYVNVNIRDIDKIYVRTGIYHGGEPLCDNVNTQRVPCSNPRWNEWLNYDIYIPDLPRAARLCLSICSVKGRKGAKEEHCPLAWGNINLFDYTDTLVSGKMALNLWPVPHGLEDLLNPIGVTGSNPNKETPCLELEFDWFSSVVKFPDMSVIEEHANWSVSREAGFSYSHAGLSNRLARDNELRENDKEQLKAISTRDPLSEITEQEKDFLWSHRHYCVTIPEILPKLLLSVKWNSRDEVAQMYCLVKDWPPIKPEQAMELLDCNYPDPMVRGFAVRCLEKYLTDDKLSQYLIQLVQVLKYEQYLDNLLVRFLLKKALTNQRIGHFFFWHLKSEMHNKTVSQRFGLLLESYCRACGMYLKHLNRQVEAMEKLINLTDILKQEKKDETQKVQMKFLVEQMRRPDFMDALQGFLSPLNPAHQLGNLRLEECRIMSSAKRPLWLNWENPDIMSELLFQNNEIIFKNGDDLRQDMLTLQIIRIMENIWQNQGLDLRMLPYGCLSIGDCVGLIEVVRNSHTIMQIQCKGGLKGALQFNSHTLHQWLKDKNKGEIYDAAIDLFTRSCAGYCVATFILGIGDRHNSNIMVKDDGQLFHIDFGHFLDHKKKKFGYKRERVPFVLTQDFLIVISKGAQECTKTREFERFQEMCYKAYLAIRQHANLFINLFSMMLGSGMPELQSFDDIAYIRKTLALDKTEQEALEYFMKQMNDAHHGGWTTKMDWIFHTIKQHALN

Molecules are shown by their SMILES. pIC50: −log10 of the molar value.

Common to all, as to type: biochemical
For experiment [1], the target named is T1, PI3Kδ (p110δ/p85α) (Homo sapiens (Human), UniProt O00329). Briefly: PI3Kδ Scintillation Proximity Assay (Assay A3). As to conditions: column b, Assay A3 (SPA), 20 μM ATP. An excerpt: [γ-^33P]ATP (10 mCi/mL) was purchased from Perkin-Elmer (Waltham, Mass.). Lipid kinase substrate, D-myo-Phosphatidylinositol 4,5-bisphosphate (PtdIns(4,5)P2)D (+)-sn-1,2-di-O-octanoylglyceryl, 3-O-phospho linked (PIP2), CAS 204858-53-7, was purchased from Echelon Biosciences (Salt Lake City, Utah). PI3Kδ (p110δ/p85α) was purchased from Millipore (Bedford, Mass.). ATP, MgCl2, DTT, EDTA, MOPS and CHAPS were purchased from Sigma-Aldrich (St. Louis, Mo.). Wheat Germ Agglutinin (WGA) YSi SPA Scintillation Beads was purchased from GE healthcare life sciences (Piscataway, N.J.).
The kinase reaction was conducted in polystyrene 384-well matrix white plate from Thermo Fisher Scientific in a final volume of 25 μL. Inhibitors were first diluted serially in DMSO and added to the plate wells before the addition of other reaction components. The final concentration of DMSO in the assay was 0.5%. The PI3K assays were carried out at room temperature in 20 mM MOPS, pH 6.7, 10 mM MgCl2, 5 mM DTT and CHAPS 0.03%. Reactions were initiated by the addition of ATP, the final reaction mixture consisted of 20 μM PIP2, 20 μM ATP, 0.2 μCi [γ-^33P] ATP, 4 nM PI3Kδ. Reactions were incubated for 210 min and terminated by the addition of 40 μL SPA beads suspended in quench buffer: 150 mM potassium phosphate pH 8.0, 20% glycerol. 25 mM EDTA, 400 μM ATP. The final concentration of SPA beads was 1.0 mg/mL. After the plate sealing, plates were shaken overnight at room temperature and centrifuged at 1800 rpm for 10 minutes, the radioactivity of the product was determined by scintillation counting on Topcount (Perkin-Elmer). IC50 determination was performed by fitting the curve of percent control activity versus the log of the inhibitor concentration using the GraphPad Prism 3.0 software.
On the technique in general: Scintillation proximity formats need no separation of bound from free tracer.

A further experiment addresses PI3Kδ (Homo sapiens (Human), UniProt O00329). Briefly: PI3K Enzyme Assay A2 ([γ-33P]ATP filter plate), PI3Kδ. The settings on record: column a, Examples 15, 30 and 44 used Assay A2, 1000 μM ATP. As to the method:
(§1) Materials: Lipid kinase substrate, phosphoinositol-4,5-bisphosphate (PIP2), was purchased from Echelon Biosciences (Salt Lake City, Utah). PI3K isoforms α, β, δ and γ were purchased from Millipore (Bedford, Mass.). ATP, MgCh, DTT, EDTA, MOPS and CHAPS were purchased from Sigma-Aldrich (St. Louis, Mo.). The kinase reaction was conducted in clear-bottom 96-well plate from Thermo Fisher Scientific in a final volume of 24 μL. Inhibitors were first diluted serially in DMSO and added to the plate wells before the addition of other reaction components. The final concentration of DMSO in the assay was 0.5%. The PI3K assays were carried out at room temperature in 20 mM MOPS, pH 6.7, 10 mM MgCl2, 5 mM DTT and CHAPS 0.03%. The reaction mixture was prepared containing 50 μM PIP2, kinase and varying concentration of inhibitors. Reactions were initiated by the addition of ATP containing 2.2 μCi [γ-^33P]ATP to a final concentration of 1000 μM. […] Reactions were incubated for 180 min and terminated by the addition of 100 μL of 1 M potassium phosphate pH 8.0, 30 mM EDTA quench buffer. […] After the plate sealing, the radioactivity of the product was determined by scintillation counting on Topcount (Perkin-Elmer). […]

Another experiment addresses PI3Kα (Homo sapiens (Human), UniProt P42336). Briefly: PI3K Enzyme Assay A2 ([γ-33P]ATP filter plate), PI3Kα. The settings on record: Assay A2, 1000 μM ATP. As to the method: as §1
In experiment [2] the target is T1, PI3Kδ (p110δ/p85α). Put plainly: AlphaScreen Assay for PI3Kδ (Assay A1). The settings on record: column a, 20 μM ATP. An excerpt:
PI3-Kinase luminescent assay kit including lipid kinase substrate, D-myo-phosphatidylinositol 4,5-bisphosphate (PtdIns(4,5)P2)D (+)-sn-1,2-di-O-octanoylglyceryl, 3-O-phospho linked (PIP2), biotinylated I(1,3,4,5)P4, PI(3,4,5)P3 Detector Protein, was purchased from Echelon Biosciences (Salt Lake City, Utah). AlphaScreen™ GST Detection Kit including donor and acceptor beads was purchased from PerkinElmer Life Sciences (Waltham, Mass.). PI3Kδ (p110δ/p85α) was purchased from Millipore (Bedford, Mass.). ATP, MgCb, DTT, EDTA, HEPES and CHAPS were purchased from Sigma-Aldrich (St. Louis, Mo.).
AlphaScreen™ Assay for PI3Kδ
The kinase reaction was conducted in 384-well REMP plate from Thermo Fisher Scientific in a final volume of 40 μL. Inhibitors were first diluted serially in DMSO and added to the plate wells before the addition of other reaction components. The final concentration of DMSO in the assay was 2%. The PI3K assays were carried out at room temperature in 50 mM HEPES, pH 7.4, 5 mM MgCl2, 50 mM NaCl, 5 mM DTT and CHAPS 0.04%. Reactions were initiated by the addition of ATP, the final reaction mixture consisted of 20 μM PIP2, 20 μM ATP, 1.2 nM PI3Kδ were incubated for 20 min. […] The activity of the product was determined on Fusion-alpha microplate reader (Perkin-Elmer). […]
(In general: Bead proximity is the source of the signal in Alpha formats.)

`Cc1csc2nc([C@H](C)Nc3ccnc4[nH]cnc34)c(-c3cccc(F)c3)c(=O)n12` [Example 46, 6-(3-Fluorophenyl)-7-[(1S)-1-(3H-imidazo[4,5-6]pyridin-7-ylamino)ethyl]-3-methyl-5H-[1,3]thiazolo[3,2-a]pyrimidin-5-one]: on PI3Kδ (p110δ/p85α) [1], the pIC50 (in general, the IC50 on a negative log10 scale, so that one unit is a factor of ten) was greater than 7.30.
Regarding `Cc1csc2nc([C@H](C)Nc3ncnc4[nH]cnc34)c(-c3cccc(F)c3)c(=O)n12` [Example 15, (S)-7-(1-(9H-purin-6-ylamino)ethyl)-6-(3-fluorophenyl)-3-methyl-5H-thiazolo[3,2-a]pyrimidin-5-one], the negative-log IC50 (pIC50) at PI3Kδ was greater than 7.30; on PI3Kδ (p110δ/p85α) [1], greater than 7.30; against PI3Kα, less than 6.30.
In turn, `Cc1csc2nc(C(C)Nc3ncnc4[nH]cnc34)c(-c3cccc(F)c3)c(=O)n12` (centres unmarked) [Example 30, 6-(3-fluorophenyl)-3-methyl-7-[1-(9H-purin-6-ylamino)ethyl]-5H-[1,3]thiazolo[3,2-a]pyrimidin-5-one] gave a pIC50 on PI3Kδ greater than 7.30.
For `Cc1csc2nc(C(C)Nc3ncnc4[nH]cnc34)c(-c3cccc(F)c3)c(=O)n12` (centres unmarked) [Example 10, 6-(3-fluorophenyl)-3-methyl-7-[1-(9H-purin-6-ylamino)ethyl]-5H-[1,3]thiazolo[3,2-a]pyrimidin-5-one], the figures for the pIC50 against PI3Kδ (p110δ/p85α) [2], on PI3Kδ (p110δ/p85α) [1] and on PI3Kα were greater than 7.30, greater than 7.30 and less than 6.30, respectively.
